{"source": "patent US20150065524A1", "about": "“KINASE INHIBITOR POLYMORPHS” (Intellikine LLC, priority 2011, published 2015)", "experiment": "Stability testing: storage at 40° C./75% RH or 25° C./97% RH, reanalysis by XRPD", "type": "physicochemical", "details": "salts of Formula I, salt screening", "description": "A sample of J00439 was stored at 40° C./75% RH. […] Thus this solid form (which will be referred to as Form A) was stable to accelerated stability testing conditions. Note that some variations in XRPD peak intensity were observed over time.\nSamples of entries 38, 39, 41, and 42 were stored at 40° C./75% RH. […]"}
{"substance": "Phosphoric acid", "values": [{"measurement": "Stability at 40° C./75% RH", "result": "Stable for 7 days"}]}
